This passage reports IC50 results from patent US20090062277A1, “PHOSPHODIESTERASE 10 INHIBITORS” (priority 2007, published 2009).

By UniProt entry, the sequences of proteins in these tests, tags left out. Residues count along the entry.
UniProt Q8CA95, 446-763 limits assumed: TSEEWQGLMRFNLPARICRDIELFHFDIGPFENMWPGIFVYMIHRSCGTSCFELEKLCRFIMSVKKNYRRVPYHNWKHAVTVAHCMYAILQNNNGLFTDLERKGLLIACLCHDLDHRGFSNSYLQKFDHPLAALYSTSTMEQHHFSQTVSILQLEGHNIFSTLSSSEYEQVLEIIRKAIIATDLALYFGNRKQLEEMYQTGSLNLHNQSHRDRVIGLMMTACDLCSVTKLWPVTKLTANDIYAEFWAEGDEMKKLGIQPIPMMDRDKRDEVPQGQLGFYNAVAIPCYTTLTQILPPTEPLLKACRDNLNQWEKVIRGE

The target in the assay is mPDE10A7 (Mus musculus, UniProt Q8CA95). In words: mPDE10A7 enzyme inhibition (IMAP fluorescence polarization). The conditions noted are these: fluorescein labeled cAMP or cGMP substrate, 30 min at room temperature. On the technique in general: Polarisation of emitted light reports the rotation of a fluorescent probe.

A word on the IC50: it is the concentration needed to halve the response being measured. High values mean weaker potency, low ones greater potency. Turning to `COc1cc2nncc(-c3ccc(N4CCC(NC(=O)C(C)(C)C)CC4)nc3)c2cc1OC`, the IC50 came out at 140 nM.

On to `CCOc1cc2c(-c3cnc(N4CCC(C(C)(C)O)CC4)c(C)c3)cnnc2cc1C`, for which the IC50 came to 60.6 nM.
